{"sequences": {"note": "By UniProt entry, the sequences of proteins in these tests, tags left out. Where a name states a change or a piece, a line headed by the entry shows the natural chain unless it says otherwise. Residues count along the entry.", "UniProt O00748, 27-559": "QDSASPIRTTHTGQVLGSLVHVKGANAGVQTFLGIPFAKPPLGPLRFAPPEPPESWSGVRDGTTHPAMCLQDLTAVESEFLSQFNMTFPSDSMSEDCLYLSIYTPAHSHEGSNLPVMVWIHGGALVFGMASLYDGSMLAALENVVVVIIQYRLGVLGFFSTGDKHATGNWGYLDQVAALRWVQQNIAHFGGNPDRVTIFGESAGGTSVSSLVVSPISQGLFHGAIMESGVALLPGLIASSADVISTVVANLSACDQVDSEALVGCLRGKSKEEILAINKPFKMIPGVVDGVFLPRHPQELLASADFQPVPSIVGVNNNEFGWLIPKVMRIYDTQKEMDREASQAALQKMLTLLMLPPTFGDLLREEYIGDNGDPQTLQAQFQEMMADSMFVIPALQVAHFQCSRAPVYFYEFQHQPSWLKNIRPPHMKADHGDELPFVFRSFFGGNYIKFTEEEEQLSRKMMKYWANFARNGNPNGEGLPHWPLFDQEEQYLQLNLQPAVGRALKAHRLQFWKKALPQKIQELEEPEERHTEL"}, "source": "patent US20230414602A1", "about": "“PHARMACEUTICAL COMPOSITION COMPRISING INSOLUBLE CAMPTOTHECIN COMPOUND-CONTAINING NANOPARTICLE FOR TREATMENT OF CANCER AND COMBINATION THERAPY THEREOF” (SNBioScience Inc., priority 2020, published 2023)", "key": {"[1]": {"assay": "Body weight of A549 xenograft mice (Example 4)", "type": "in vivo, BALB/c nu/nu male mice", "conditions": "docetaxel 5->10 mg/kg, SNB-101 20 mg/kg (as SN-38), i.v. Q1W x 5"}, "[2]": {"target": "carboxylesterase 2 (CES2) (Homo sapiens, UniProt O00748)", "conditions": "cited from earlier work"}}}
{"compound": "CC(=O)O[C@@]12CO[C@@H]1C[C@H](O)[C@@]1(C)C(=O)[C@H](O)C3=C(C)[C@@H](OC(=O)[C@H](O)[C@@H](NC(=O)OC(C)(C)C)c4ccccc4)C[C@@](O)([C@@H](OC(=O)c4ccccc4)[C@H]21)C3(C)C", "note": "[Docetaxel, docetaxel]", "values": [{"measurement": "Body weight at the end of the test (day 37)", "setting": "[1]", "result": 19.10, "unit": "g"}]}
{"compound": "CCc1c2c(nc3ccc(OC(=O)N4CCC(N5CCCCC5)CC4)cc13)-c1cc3c(c(=O)n1C2)COC(=O)[C@]3(O)CC", "note": "[irinotecan]", "values": [{"measurement": "variation of conversion rate among patients", "setting": "[2]; among patients", "result": "more than 4 times"}, {"measurement": "conversion rate of irinotecan to SN-38 in the body", "setting": "[2]; in the body", "result": "2-8%"}]}
